From patent publication US9175077B2, “Nucleic acids encoding biologically active polypeptides derived from a novel early stage pregnancy factor designated maternin (MA)” (NOBEL BIOSCIENCES LLC, priority 1999, dated 2015)
Like-named read-outs stand apart in the source and are kept apart here.

Experiments:
[1] = test system: hematopoietic progenitors (CFU-GEMM, BFU-e, CFU-GM, T-CFC); assay: Hematopoietic colony formation assays; format: cell-based, human
Source text: Hematopoietic colony formation assays with bone marrow or cord blood of normal human volunteers and bone marrow of monkeys, rats, and mice were utilized. The assays are conventional measurements of the number of progenitors for erythrocytes, granulocytes, macrophages, platelets, and T-cells. The culture conditions included growth factors that would give near optimum growth for the particular lineage. These factors included II-3, PHA-lymphocyte conditioned medium, erythropoietin (EPO), II-6, and GM-CSF. The number of colonies developing in methylcellulose reflects the number of progenitor cells, and the percent increase is a measure of the effect of different polypeptides to increase colony number above the maximum obtained with the indicated known growth factors.
However, concentrations ranging from 10-500 ng/ml (approximately 3-150 nM) of both native MA and MAS1, MAS2, and MAS5 promoted an increase in colony number in a dose-dependent manner reaching a maximum of 60-80% increase at 30-150 nM (FIG. 9) for all hematopoietic progenitors. We observed similar results when the source of hematopoietic precursors were: human cord blood, rhesus macaque bone marrow, and rat and mouse bone marrow. Thus, like the anti-tumor and anti-viral results, the multi-lineage pro-hematopoietic effects of MA crosses several species. MA promotes CFU-GEMM FIG. 9, Panel A) which includes, precursors of granulocytes, red blood cells, and macrophages; BFU0e, (FIG. 9, Panel B) which are red blood cell precursors; CFU-GM (FIG. 9, Panel C) which include myeloid (granulocyte) and macrophage precursors; and T-CFC, (FIG. 9, Panel D) which are cells capable of forming colonies of T-cells. The latter is a less conventional assay, and details on the methods involved are described elsewhere.^178

[2] = test system: human carcinoma and sarcoma cells (PC3, KS Y-1); assay: Xenotransplanted human tumors in immunodeficient mice; format: in vivo; settings: controls at equivalent and higher molar concentrations
Experimental: In the first set of experiments, MA was tested against tumors formed by xenotransplantation of various human carcinoma and sarcoma cells in immunodeficient mice. […] […] The inhibitory effects were dose-dependent and found with both native and synthetic MA and pMA. At the dose range of 60-100 pmoles there was over 70% inhibition of tumor size. […] Three different synthetic forms of MA were used: full length (MAS3) and the previously described MAS1 and MAS2 (Panel C). […] However, whether this effect is direct, and in turn facilitates tumor destruction by diminished blood supply or is a consequence of primary tumor cell killing is not settled because a rapid induction of tumor cell apoptosis may prevent release of angiogenic factors such as VEGF.

human tumor cells = format: cell-based; settings: controls at equimolar or 5 to 10× greater concentrations
Experimental: The anti-tumor activities of MA were assessed in several in vitro and in vivo systems using published methods.^166 In vitro studies were with a wide variety of human tumor cell lines as well as short-term cultures of cells from biopsy samples obtained from tumors. The assays included effects of MA on colony formation, cell number and viability (trypan blue), and apoptosis. Four measures of microscopy were used. In vivo studies included the effects of MA on tumors induced in immunodeficient mice by xenotransplanted various human neoplastic cells, spontaneous neoplasms of immuno-competent mice and rats, and a few standard tumors in immuno-competent mice. Representative examples are presented.
Cells (5×10^5/ml) were seeded in modified Eagle's medium supplemented with 10% FCS, 10% conditioned medium form PHA stimulated human lymphocytes, 2 mM glutamine in 0.8% V/V methylcellulose with or without various treatments in a final volume of 1.0 ml. Then 0.1 ml aliquots were seeded in 96 well flat bottom microtest plates and incubated at 37° C. in 5% CO2 in air for 7 days. Aggregates containing 50 cells or more were scored as colonies.
5×10^5 cells were seeded in triplicate on 24 gelatin coated wells in conditions as described for Panel A and treated with the indicated test materials. After 3 days the cells were dislodged from their monolayers by gentle pipetting with cell dissociation buffer (Life Technologies), counted after trypan blue staining and aliquots examined for Annexin V staining by indirect IFA […].
Studies of the anti-tumor cell effects of MA were extended to other carcinomas, melanoma, some hematopoietic tumors, and carcinomas of the colon, prostate, breast, lung, brain, pancreas, and kidney-using cell lines from these tumors. […] Less than 30 nM native and synthetic MA, including the truncated forms, produced near maximum effects. Many more types of tumor cells were studied utilizing other assays (see below).

[3] = Summary of active and inactive peptides / overall biological activities
[4] = Lethal dose taxol in Sprague-Dawley rats; format: in vivo; settings: even at high doses
Experimental: Sprague-Dawley rats were given taxol in large lethal doses, 4.5 mg in one I.P. inoculation. This amount lead to bone marrow cytotoxicity, resultant blood cell deficiencies, and death of the rats in less than 5 days. Bone marrow suppression can also be a side effect of the clinical use of taxol.^179 As in the radiation experiments, either MA, pMA, MAS1, or various polypeptide controls were given subcutaneously only in two doses 24 and 48 hrs before taxol treatment or were given 3×/week for 4 weeks. […] Sixty-percent (low dose) or 80-90% (higher dose) of pretreated animals survived when given MA, MAS1, or pMA. In animals in which therapy was maintained 28 days with low (100 ng) or high (1000 ng) doses of MA, MAS1, or pMA, there was 100% survival on day 5 reducing to about 60% (low dose) and 80% (high dose) maintained at this level with the animals appearing healthy now at day 80, similar to the radiation experiments. Again, no effect was obtained with pure hCG, rβ-hCG, native glycosylated β-core, control peptides, or LH even at high doses, e.g., 5000 ng of native glycosylated (3-core. Like untreated animals, these rats were all dead before day 5.
Total lymphocytes (A), platelets (B), hemoglobin (C), and red cells (D) within a few days of receiving the one inoculation of the high dose MA or MAS1 show striking rise in number (blood counts were not performed on the pMA-treated animals). […]

[5] = Lethally irradiated rats and mice; settings: treated 24 and 48 hrs prior to radiation
Experimental: In order to determine in vivo relevance of the prohematopoietic effects of MA treated rats and mice under several conditions of bone marrow suppression. First, the effects of native MA and pMA and of the synthetic 15-mer MAS1 were treated for their capacity to reduce or prevent the effects of lethal doses of gamma irradiation. […] MA, pMA, MAS1, and various control polypeptides were given 48 and 24 hrs before, during, or 24 hrs after radiation. The animals treated prior to radiation received either 100 ng vs. 1 ug (rats) or 50 ng vs. 500 ng (mice) as 2 subcutaneous injections.
It is not yet possible to determine the precise molar dose of pMA because of less certainty on its full-length sequence.
To ascertain that the MA effect did promote hematopoiesis in these animals we examined the bone marrow for cellularity and colony formation and determined peripheral blood counts.

| Substance | hematopoietic effects in vivo and in vitro [1] | effect on xenotransplanted tumor (qualitative) [2] | inhibition of growth / induction of apoptosis of neoplastic cells (human tumor cells) | biological activities in vitro or in vivo in the experimental systems described [3] | effect on colony number (qualitative) ([1]; equimolar or higher concentrations) | effect on survival (qualitative) [4] | day before which all animals died [5] | inhibition of growth / induction of apoptosis of neoplastic cells (human tumor cells; listed as pure hCG) | biological activities in vitro or in vivo in the experimental systems described ([3]; listed as pure hCG) |
| --- | --- | --- | --- | --- | --- | --- | --- | --- | --- |
| α-hCG: α-chain of hCG [reference compound] | None | no effect | no inhibition of growth or induction of apoptosis | no activity | – | – | – | – | – |
| recombinant hCG: recombinant hCG [reference compound] | – | – | no inhibition of growth or induction of apoptosis | – | – | – | – | – | – |
| CR127: highly purified native hCG [reference compound] | None | no effect | no inhibition of growth or induction of apoptosis | no activity | no significant effect above background | no effect | < 5 days | no effect | none of the observed activities |
